# Only a part is listed here, and it is no random draw. Activity calls are given as the source filed them.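 Rule for the calls: active = normalized GFP-positive differentiation at or above the plate's own cutoff, the solvent-only control mean plus 3 SD; inconclusive = no clear call, values can overlap the other calls; inactive = the rest.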
# Assay: HoxA9-arrested leukemia cell differentiation promoters – flow cytometry, MLPCN library, primary screen (AID 624256)
# Conditions: ER-HoxA9 myeloid progenitors, lysozyme-GFP differentiation, at 10 µM
row,SMILES,outcome
1,O=[N+]([O-])c1cc([N+](=O)[O-])c(-n2nnc3ccccc32)c([N+](=O)[O-])c1,inactive
2,CCOP(=O)(NC(=NC(C)c1ccccc1)NC(C)c1ccccc1)OCC (centres undefined),inactive
3,Nc1ccc(CCCCOc2ccccc2)cc1.O=[N+]([O-])c1cc([N+](=O)[O-])c(O)c([N+](=O)[O-])c1,inactive
4,O=P1(Nc2ccccn2)COc2ccccc2OC1,inactive
5,CCC1=CC2Cc3nc4ccc(Cl)cc4c(N)c3C(C1)C2 (centres undefined),inactive
6,O=C(O)C(O)c1ccc(N(CCCl)CCCl)cc1.c1ccncc1 (centres undefined),inactive
7,CCOP(=O)(Nc1ccc(C)cn1)OCC,inactive
8,CN(CCCl)Cc1cc(Cl)c(NC2=NCCN2)c(Cl)c1,inactive
9,CC(C)(C)C(=O)NC(Sc1ncccn1)C(Cl)(Cl)Cl (centres undefined),inactive
10,O=P1(N(CCCl)CCCl)NCCC(C(F)(F)F)O1 (centres undefined),inactive
11,Clc1n[nH]nc1-c1nn[nH][15n]1,inactive
12,CN(Cc1cccnc1)C(=O)COc1ccc(Cl)c(Cl)c1.O=[N+]([O-])c1cc([N+](=O)[O-])c(O)c([N+](=O)[O-])c1,inactive
13,O=[N+]([O-])c1cc([N+](=O)[O-])c(-c2cnn(-c3ccccc3)c2)c([N+](=O)[O-])c1,inactive
14,COc1ccccc1CNC(=O)COC(=O)C(O)(c1ccccc1)c1ccccc1,inactive
15,Cc1ccc(S(=O)(=O)N(CCCN)CCCc2c(C)nc(N)[nH]c2=O)cc1.O=[N+]([O-])c1cc([N+](=O)[O-])c(O)c([N+](=O)[O-])c1,inactive
16,CC(C)/C=N\N=C(\N)N[N+](=O)[O-],inactive
17,CN(C(=O)Cc1ccc(Cl)c(Cl)c1)[C@@H]1CCCC[C@H]1N1CCCC1,inactive
18,CC1(CBr)Cn2c(nc3ccccc3c2=O)S1 (centres undefined),inactive
19,Cc1nc2ccc3ccccc3c2s1.O=[N+]([O-])c1cc([N+](=O)[O-])c(O)c([N+](=O)[O-])c1,inactive
20,CC1CCC(C(C)C)C(OP(=O)(Nc2ccccn2)c2ccccc2)C1 (centres undefined),inactive
21,Cc1ccc(C(=O)OC2CN3CCC2CC3)cc1 (centres undefined),inactive
22,Cc1nn(-c2ccccc2)c2c1P(=O)(N1CCOCC1)N(C)C(c1ccccc1)=N2 (centres undefined),inactive
23,COc1cc(C2NCCC3(OCCO3)C2(C)C)cc(OC)c1OC.O=[N+]([O-])c1cc([N+](=O)[O-])c(O)c([N+](=O)[O-])c1 (centres undefined),inactive
24,CCOC(=O)C(CC)C1=NC(C)(C)Cc2ccccc21.O=[N+]([O-])c1cc([N+](=O)[O-])c(O)c([N+](=O)[O-])c1 (centres undefined),inactive
25,CN(C)C1(CNC(=O)c2ccc(S(C)(=O)=O)cc2)CCCCC1,inactive
26,CC1=C2N=C(C=C3N=C(C(C)=C4[N-][C@@](C)([C@@H]5N=C1[C@](C)(CCC(=O)NC[C@@H](C)OP(=O)([O-])O[C@H]1[C@@H](O)[C@@H](n6cnc7cc(C)c(C)cc76)O[C@@H]1CO)[C@H]5CC(N)=O)[C@@](C)(CC(N)=O)[C@@H]4CCC(N)=O)[C@@](C)(CC(N)=O)[C@@H]3CCC(N)=O)C(C)(C)[C@@H]2CCC(N)=O.[C-]#N.[Co+3],inactive

row,SMILES,outcome
1,O=[N+]([O-])c1cc([N+](=O)[O-])c(Nc2nnnn2CCO)c([N+](=O)[O-])c1,inactive
2,CCCC1OP(=O)(Nc2ccccc2)OCC1CC (centres undefined),inactive
3,O=C(/C=C/c1ccccc1)OC1CN2CCC1CC2 (centres undefined),inactive
4,COc1ccccc1OP(C)(=O)Nc1c(C)cccc1C (centres undefined),inactive
5,CN1CCCCC1COC(=O)C1(O)c2ccccc2CCc2ccccc21 (centres undefined),inactive
6,O=P1(Nc2ncccn2)COc2ccccc2OC1,inactive
7,CCCOc1ccc(NP(C)(=O)Oc2ccc(Cl)cc2)cc1 (centres undefined),inactive
8,Nc1cccc([As](=O)(O)c2ccccc2)c1,inactive
9,CP(=O)(Nc1ccc(SC(F)(F)F)cc1)Oc1ccccc1 (centres undefined),inactive
10,COc1ccc(-c2ccccn2)cc1.O=[N+]([O-])c1cc([N+](=O)[O-])c(O)c([N+](=O)[O-])c1,inactive
11,Cc1ccc(OCC(=O)OC2CN3CCC2CC3)cc1 (centres undefined),inactive
12,O=[As](O)(c1cccs1)c1cccs1,inactive
13,O=P1(Nc2ccc(Br)cn2)COc2ccccc2OC1,inactive
14,NS(=O)(=O)c1cccc(NC(=O)COC(=O)C(O)(c2ccccc2)c2ccccc2)c1,inactive
15,O=P(Nc1nccs1)(Oc1ccccc1)Oc1ccccc1,inactive
16,O=P(Nc1nccs1)(c1ccccc1)c1nc2ccccc2s1 (centres undefined),inactive
17,CCOP1(=S)c2c(C)nn(CCC#N)c2N=C(c2ccccc2F)N1C (centres undefined),inactive
18,O=C(O)c1cccc(Nc2c([N+](=O)[O-])cc([N+](=O)[O-])cc2[N+](=O)[O-])c1,inactive
19,CS(=O)(=O)c1cc([N+](=O)[O-])c2no[n+]([O-])c2c1,inactive
20,Nc1ccccc1[As](=O)(O)c1ccccc1,inactive
21,O=C(O)COc1ccc([As](=O)(O)O)cc1[N+](=O)[O-],inactive
22,NC(=O)Nc1ccc([As](=O)(O)O)cc1,inactive
23,CN(C(=O)Cc1ccccc1)[C@@H]1CC[C@]2(CCCO2)C[C@H]1N1CCCC1,inactive
24,CCOP1(=S)c2c(C)nn(CCC#N)c2N=C(c2ccc(F)cc2)N1C (centres undefined),inactive
25,N#CCCN(C(=O)COC(=O)C(O)(c1ccccc1)c1ccccc1)c1ccc(F)cc1,inactive
26,CC1=NCCc2c1[nH]c1ccccc21.O=[N+]([O-])c1cc([N+](=O)[O-])c(O)c([N+](=O)[O-])c1,inactive

row,SMILES,outcome
1,CN(C(=O)Cc1ccc(Cl)c(Cl)c1)[C@H]1CC[C@@]2(CCCO2)C[C@@H]1N1CCCC1,inactive
2,O=[N+]([O-])c1ccc2c(c1)nnn2O,inactive
3,O=C(OC1CN2CCC1CC2)c1ccc(Cl)cc1 (centres undefined),inactive
4,COc1ccccc1OP(C)(=O)Nc1cccc(Br)c1 (centres undefined),inactive
5,CS(=O)(=O)c1ccc(Cl)c(NC(=O)COC(=O)C(O)(c2ccccc2)c2ccccc2)c1,inactive
6,O=[As](O)(O)c1cccnc1,inactive
7,COc1cc(C(=O)NCC2(N3CCOCC3)CCCCC2)cc(Cl)c1OC(C)C,inactive
8,Cc1cc(C)cc(OP(C)(=O)Nc2ccc(C)cc2C)c1 (centres undefined),inactive
9,Cc1cccc(OCC(=O)OC2CN3CCC2CC3)c1 (centres undefined),inactive
10,O=[As](O)(c1cccc(O)c1)c1cccc(O)c1,inactive
11,CCOC(=O)c1ccc(NP(C)(=O)Oc2cc(C)cc(C)c2)cc1 (centres undefined),inactive
12,Cc1ccc(NCCc2c([N+](=O)[O-])cc([N+](=O)[O-])cc2[N+](=O)[O-])cc1,inactive
13,Nc1cccc2c([As](=O)(O)O)cccc12,inactive
14,Cc1cc(C)cc(OP(C)(=O)Nc2ccccn2)c1 (centres undefined),inactive
15,CP(=O)(Nc1cccc(Br)c1)Oc1ccccc1 (centres undefined),inactive
16,Cc1ccc(C)c(NP(C)(=O)Oc2ccccc2)c1 (centres undefined),inactive
17,CCCOP(=S)(Nc1nc(N)cc(=O)[nH]1)OCCC,inactive
18,CCOP(=O)(Nc1cccc2ccccc12)OCC,inactive
19,Cc1c2c(nc3ccccc13)SC(C(Cl)Cl)C2 (centres undefined),inactive
20,Cc1cc(=O)[nH]c(N[N+](=O)[O-])n1,inactive
21,CCN(CC)CCCOC(=O)C(O)(c1ccccc1)c1ccccc1,inactive
22,O=C(OC1CN2CCC1CC2)C12CC3CC(CC(C3)C1)C2 (centres undefined),inactive
23,O=P1(N(CCCl)CCCl)OCCCN1CCCl (centres undefined),inactive
24,O=P1(N(CCCl)CCCl)Nc2ccccc2N1,inactive
25,COc1cc(I)ccc1[As](=O)(O)O,inactive
26,COc1ccc2nc(NP(=O)(c3ccccc3)c3ccccc3)sc2c1,inactive

row,SMILES,outcome
1,O=[N+]([O-])c1cc(Oc2ccc([N+](=O)[O-])cc2C(F)(F)F)cc([N+](=O)[O-])c1,inactive
2,COc1ccccc1-c1ccccn1.O=[N+]([O-])c1cc([N+](=O)[O-])c(O)c([N+](=O)[O-])c1,inactive
3,COc1ccc(N/C(=N/P(=O)(N2CCOCC2)N2CCOCC2)N2CCOCC2)cc1,inactive
4,O=[N+]([O-])c1cc([N+](=O)[O-])c(Nc2cccnc2)c([N+](=O)[O-])c1,inactive
5,O=[N+]([O-])c1ccc(-c2cc([N+](=O)[O-])c(O)c([N+](=O)[O-])c2)cc1,inactive
6,COc1cc(C(=O)NCC2(N3CCOCC3)CCCCC2)ccc1OCC(C)C,inactive
7,O=[As](O)(c1ccc(O)cc1)c1ccccc1O,inactive
8,C[As](=O)(O)c1cccc(C(=O)O)c1,inactive
9,Cc1cccc(C)c1OP(C)(N)=O (centres undefined),inactive
10,[N-]=[N+]=NC1CCCCC1NC(=O)c1cc([N+](=O)[O-])cc([N+](=O)[O-])c1 (centres undefined),inactive
11,Cc1ccc(OP(=O)(Nc2ccc([N+](=O)[O-])cn2)Oc2ccc(C)cc2)cc1,inactive
12,CC(C)(C)c1ccc(OP(C)(=O)Nc2ccc(SC(F)(F)F)cc2)cc1 (centres undefined),inactive
13,Cc1ccc2nc3c(c(C)c2c1)CC(C(Cl)Cl)S3 (centres undefined),inactive
14,ClCCSc1nnc(-c2cccnc2)o1,inactive
15,CCOC(=O)c1ccc(NP(C)(=O)Oc2ccccc2)cc1 (centres undefined),inactive
16,COC(=O)C1(C)COP(=O)(N2CCCCCC2)OC1 (centres undefined),inactive
17,Cc1ccc(NP(C)(=O)Oc2ccccc2)c(C)c1 (centres undefined),inactive
18,CC(C)c1ccc(OP(=O)(Nc2ccccn2)Oc2ccccc2F)cc1 (centres undefined),inactive
19,COc1ccccc1OP(C)(=O)Nc1ccc(C)cc1 (centres undefined),inactive
20,COc1ccc(OP(C)(=O)Nc2cccc(F)c2)cc1 (centres undefined),inactive
21,O=[N+]([O-])c1cc([N+](=O)[O-])c(-c2ccn[nH]2)s1,inactive
22,CC(C)NC(=O)NP(=O)(Oc1ccccc1)Oc1ccccc1,inactive
23,CCN(CC)C(=S)SC(NC=O)C(Cl)(Cl)Cl (centres undefined),inactive
24,O=C(OC1CN2CCC1CC2)c1cccc2[nH]cnc12 (centres undefined),inactive
25,Cc1cc(C)cc(OP(C)(N)=O)c1 (centres undefined),inactive
26,O=C(O)C(=O)c1ccc(N(CCCl)CCCl)cc1.c1ccc(Nc2ccccc2)cc1,inactive

# — PubChem BioAssay AID624256 (NMMLSC, 2012)
